{
  "source": "paper PMC9065009",
  "about": "“Mechanistic insights of ABC importer HutCD involved in heme internalization by Vibrio cholerae” (Scientific Reports, 2022)",
  "test_system": "Nc1ncnc2c1ncn2[C@@H]1O[C@H](COP(=O)(O)OP(=O)(O)OP(=O)(O)O)[C@@H](O)[C@H]1O",
  "test": "purified protein",
  "details": "50 mM Tris-HCl pH 8.0, 300 mM NaCl, 5 mM MgCl2, 298 K, 2.5 μM protein, 25.0 °C",
  "data": [
    {"substance": "HutD (Vibrio cholerae O1 biovar El Tor str. N16961)", "values": [
      {"measurement": "Km", "value": "74.15 ± 9.46", "unit": "µM"}
    ]}
  ]
}
